## Binding of CDR-mutated scFvs to a peptide of the spike HR2 region

Antigen: PDVDLGDISGINAS, a 14-residue peptide of the SARS-CoV-2 spike HR2 region.

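Phage display of a naive human antibody library on the peptide gave the parent. Variants in AAYL50 differ from the parent at up to three CDR positions; double and triple changes were sampled at random. AlphaSeq pools MATa yeast showing the antibodies with MATalpha yeast showing the peptide. Binding brings cells together so that they mate, and sequencing counts the barcode pairs among the diploids. A regression on co-assayed BCL2-family reference pairs converts the normalised counts of each replicate to an apparent Kd. Mating was done three times.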

Each scFv is VH, a (GGGGS)3 linker, VL, as in the parent Ab-14, and differs from it in the CDRs of the light chain only.
VH: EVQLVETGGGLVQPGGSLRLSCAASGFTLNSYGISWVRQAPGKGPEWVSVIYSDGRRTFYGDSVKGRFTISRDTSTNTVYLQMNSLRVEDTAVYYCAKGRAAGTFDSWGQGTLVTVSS
VL: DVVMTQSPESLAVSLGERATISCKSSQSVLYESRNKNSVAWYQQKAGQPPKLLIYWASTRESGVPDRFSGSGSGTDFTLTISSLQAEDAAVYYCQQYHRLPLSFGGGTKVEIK

The parent's light chain CDRs are KSSQSVLYESRNKNSVA, WASTRES, QQYHRLPLS; each variant's own CDRs replace them letter for letter. Values are log10 of the apparent Kd in nM; lower means stronger binding. A pair that was not seen in that replicate is written "nd"; this usually means weak binding, but a binder can also be missed. Three control strains display no target. For library AAYL50, 18% of the pairings with them gave a signal, with a median of 4.19 and one signal in twenty below 2.99, so weak values seen in few replicates may be background. The control count says in how many pairings with the empty strains this scFv gave a signal, with their mean in brackets.

CDR-L1 | CDR-L2 | CDR-L3 | replicates, log10 nM | signal with controls
KSSQSTLYGSRNKNSVA | WASTRES | QQYCRLPLS | 1.59 1.43 1.44 | 5/9 (4.70)
KSSQSVLYEYRNINSVA | WASTRES | QQYHRLPLS | 1.41 1.39 1.55 | 0/9
KSSQSVLYESRNKNSAA | WASTRES | QDYHRLPLS | nd 3.15 nd | 0/9
KVSQSVLYESRNKNSVA | WASWRES | QQYERLPLS | 0.28 0.66 0.56 | 3/9 (4.69)
KSSQSVLGESRNKNSVA | WASTRES | QQYHRLPGS | nd nd nd | 0/9
KSSQHVLYESRNKNSVR | WASTREQ | QQYHRLPLS | 0.48 0.88 0.68 | 0/9
KSSQSGLYESRNKNTVA | WASTRES | QQYHRLPLL | 1.02 1.11 1.14 | 4/9 (5.11)
KSSQSVLYESRNKNSVA | WASKREH | QLYHRLPLS | 4.74 3.67 4.88 | 0/9
KSSQSVLYESRNINSVA | WASTRES | QQYERLPLK | 1.37 1.30 1.68 | 0/9
KSTQSVLYEWRNKNSVA | WASTRES | QQYHRLHLS | nd nd nd | 4/9 (3.96)
KFSTSVLYESENKNSVA | WASTRES | QQYHRLPLS | nd nd nd | 0/9
KSSQSVLYESRNKNSVA | WASTRYS | QEYHDLPLS | 4.50 nd nd | 1/9 (2.82)
KSSQSVLYESRCKNSAA | WASTREQ | QQYHRLPLS | nd nd nd | 0/9
KSSQSVLYESRVKNSVA | WASTRPS | QQYHGLPLS | nd nd nd | 0/9
KFSQSVLYESRNGNSVA | WASTRES | QQYHRLKLS | 0.30 0.53 -0.04 | 0/9
KSSQSVLYELRNKNSVA | WAGTRES | QQYHRCPLS | 2.38 1.62 2.86 | 0/9
KSSQSVLYESRNKNSVA | WASTLES | QQYHRLPMS | 1.55 1.83 1.65 | 3/9 (3.24)
KSSQSVLYESRNKNSVA | WASTRTM | QQYHRLWLS | 1.15 1.28 1.23 | 2/9 (3.53)
KSSQSVLYEMRNKNHVA | WAYTRES | QQYHRLPLS | nd 3.86 nd | 1/9 (5.17)
PSSQSVLYESRNKNSVA | WQSTRES | QWYHRLPLS | 4.51 nd nd | 3/9 (5.29)
KSSQVVLYESRNKNSVA | LASTRES | PQYHRLPLS | 4.20 4.56 4.28 | 3/9 (3.80)
KSSQKVLYESRNKNSMA | WRSTRES | QQYHRLPLS | nd nd nd | 0/9
KSSQEILYESRNKNSVA | WASERES | QQYHRLPLS | 0.64 0.70 0.85 | 0/9
KSSTSVLYESRNKNSVA | WASTREK | QQYHRLPLS | 1.68 1.11 1.08 | 0/9
KSSQSVLYVSRGKNSVY | WASTRES | QQYHRLPLS | nd nd nd | 3/9 (3.46)
KSSQSVLYELRNKNSVA | WISTRES | QQYHRLPGS | nd 2.88 4.32 | 4/9 (3.51)
KSSQSVLYESRNKNFVA | WAYTIES | QQYHRLPLS | 3.98 4.86 nd | 1/9 (4.14)
KSSQSDLYMSRNKNSVA | WASTQES | QQYHRLPLS | nd 5.36 nd | 3/9 (4.23)
KSSQSMLYESRNKNSVA | WAMTRES | MQYHRLPLS | nd nd 3.14 | 0/9
KSSQSVLYESRNKNSVM | WTWTRES | QQYHRLPLS | nd nd nd | 1/9 (4.46)
KSCQSVLYESRNKNSVA | WASTRMS | QQYHYLPLS | 2.67 2.41 2.48 | 2/9 (4.72)
KSSFSVLYESRNKHSVA | WASTRES | QQYHRLPLF | 2.01 1.99 2.06 | 6/9 (5.06)

Top 4 of the variants detected in all replicates, tightest first:

CDR-L1 | CDR-L2 | CDR-L3 | replicates, log10 nM | signal with controls
KFSQSVLYESRNGNSVA | WASTRES | QQYHRLKLS | 0.30 0.53 -0.04 | 0/9
KVSQSVLYESRNKNSVA | WASWRES | QQYERLPLS | 0.28 0.66 0.56 | 3/9 (4.69)
KSSQHVLYESRNKNSVR | WASTREQ | QQYHRLPLS | 0.48 0.88 0.68 | 0/9
KSSQEILYESRNKNSVA | WASERES | QQYHRLPLS | 0.64 0.70 0.85 | 0/9

Source: Engelhart et al. 2022 (doi:10.1038/s41597-022-01779-4), MIT Lincoln Laboratory and A-Alpha Bio; data file from the FLAb repository.